# Measured affinities in a library of Ab-14 light chain variants

Reference: Engelhart et al. 2022, doi:10.1038/s41597-022-01779-4. File: FLAb, binding data.

Target: peptide PDVDLGDISGINAS, taken from heptad repeat 2 (HR2) of SARS-CoV-2 spike.

Parent: Ab-14, a human scFv built as VH, the linker GGGGSGGGGSGGGGS, VL. Only the CDRs of the light chain vary.
VH: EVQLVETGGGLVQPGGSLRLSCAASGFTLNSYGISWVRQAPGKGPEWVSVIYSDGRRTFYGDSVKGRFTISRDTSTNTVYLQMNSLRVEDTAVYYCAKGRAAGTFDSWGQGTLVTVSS
VL: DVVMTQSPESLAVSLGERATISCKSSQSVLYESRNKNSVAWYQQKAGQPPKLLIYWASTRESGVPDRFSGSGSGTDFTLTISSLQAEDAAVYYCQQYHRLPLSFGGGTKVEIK

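AAYL50 was designed without a model: most single CDR substitutions and a random sample of double and triple ones. Affinity was read by AlphaSeq, a pooled yeast mating assay with surface-displayed partners. Binding brings cells together so that they mate, and sequencing counts the barcode pairs among the diploids. The ratio of observed to expected reads was calibrated, replicate by replicate, on BCL2-family standards whose Kd was known from biolayer interferometry. The assay was run in three technical replicates.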

Substitutions are numbered in sequence along the VL above, starting at 1 (not Kabat). Every variant below is changed at H98 of the VL (sequential numbering). Kd is apparent (estimated from mating counts) and averaged on the log scale over replicates with a signal. Smaller is tighter. "nd" means that the variant was in the library but no mating with the target was seen in any replicate; the authors take this as a sign of poor binding, and no number exists. For reference, the parent read 4.4 nM as the reference entry and 48 nM as a member of this library.

For E61G/Q95K/H98L, the assay gave 1.8 µM (1 of 3 replicates). Variant L30E/A57F/H98R gave nd (0 of 3 replicates). With L30V/H98Y/L100I the result was 75 nM (3 of 3 replicates). Variant Q96C/H98V/L100A showed 6.6 µM (3 of 3 replicates). Variant S28L/H98W showed nd (0 of 3 replicates). Variant S58R/H98K showed 150 nM (3 of 3 replicates). Variant V39I/A40C/H98N gave 850 nM (3 of 3 replicates). Variant L30A/H98R showed 170 nM (3 of 3 replicates).

For Q95T/H98R/S103N, the assay gave nd (0 of 3 replicates). With S25P/T59I/H98S the result was 2.7 nM (3 of 3 replicates). With Q96D/H98K/R99T the result was 3.0 µM (2 of 3 replicates). For Q27V/H98W/L102Q, the assay gave 13 µM (2 of 3 replicates). Variant K24R/S26V/H98W showed 29 nM (3 of 3 replicates). For K36M/Y97F/H98F, the assay gave 4.5 nM (3 of 3 replicates). Variant R60V/H98G gave 170 nM (3 of 3 replicates). With S38L/W56A/H98W the result was 66 nM (3 of 3 replicates).

For S33G/H98T, the assay gave 6.8 nM (3 of 3 replicates). Variant E32L/H98Y/L102G gave nd (0 of 3 replicates). Variant V29W/Y31S/H98E gave 19 nM (3 of 3 replicates). Variant E32M/R34F/H98L showed nd (0 of 3 replicates). Variant S38C/S58G/H98E showed 7.2 µM (3 of 3 replicates). For V29F/H98P/R99V, the assay gave 4.9 nM (3 of 3 replicates). For H98R/R99V/L100R, the assay gave nd (0 of 3 replicates). With H98M the result was 4.5 nM (3 of 3 replicates).

Variant S25Y/S28I/H98I gave 95 nM (3 of 3 replicates). Variant W56H/H98L/L102Y gave 14 nM (3 of 3 replicates). Variant R34C/E61V/H98R gave 14 nM (3 of 3 replicates). Variant N35R/W56P/H98T showed nd (0 of 3 replicates). With N37L/H98K/L102I the result was 1.8 µM (3 of 3 replicates). With R60H/S62Y/H98M the result was 700 nM (3 of 3 replicates). Variant A40R/H98I/L100H showed nd (0 of 3 replicates). For K24V/H98Y/L102S, the assay gave nd (0 of 3 replicates).

For T59P/H98P, the assay gave 94 µM (2 of 3 replicates). With L30H/A40L/H98G the result was nd (0 of 3 replicates). For Q96K/H98V/L102E, the assay gave nd (0 of 3 replicates). For R60N/H98E, the assay gave nd (0 of 3 replicates). Variant R60W/S62G/H98P gave 6.6 µM (2 of 3 replicates). For H98K/P101D/L102V, the assay gave nd (0 of 3 replicates). Variant H98F/R99H/P101H gave 6.0 nM (3 of 3 replicates). Variant Q27T/H98K/R99T showed 14 nM (3 of 3 replicates).

With Y31N/H98R the result was 13 nM (3 of 3 replicates). For A57C/Y97I/H98L, the assay gave nd (0 of 3 replicates). With V29T/S58D/H98P the result was 45 nM (3 of 3 replicates). Variant A40S/E61M/H98R showed 520 nM (1 of 3 replicates). Variant S25Q/V29P/H98V gave 9.6 nM (3 of 3 replicates). Variant V39L/H98A/S103Q gave 25 nM (3 of 3 replicates).

Top 4 of the variants detected in all replicates, tightest first:

{"changes": "S25P/T59I/H98S", "apparent Kd": "2.7 nM", "detected": "3/3"}
{"changes": "K36M/Y97F/H98F", "apparent Kd": "4.5 nM", "detected": "3/3"}
{"changes": "H98M", "apparent Kd": "4.5 nM", "detected": "3/3"}
{"changes": "V29F/H98P/R99V", "apparent Kd": "4.9 nM", "detected": "3/3"}

Three control strains display no target. For library AAYL50, 18% of the pairings with them gave a signal, with a median of 15 µM and one signal in twenty below 970 nM, so weak values seen in few replicates may be background.